## Measured affinities in a library of Ab-91 heavy chain variants

Data: MIT Lincoln Laboratory AlphaSeq set, Engelhart et al. 2022, doi:10.1038/s41597-022-01779-4, as distributed in FLAb.

Target peptide (SARS-CoV-2 spike, HR2 region): PDVDLGDISGINAS

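The starting antibody came from a phage panning campaign against this peptide. Variants in AAYL51 differ from the parent at up to three CDR positions; double and triple changes were sampled at random. The assay is AlphaSeq: two haploid yeast populations carry antibody and antigen on their surface. Binding brings cells together so that they mate, and sequencing counts the barcode pairs among the diploids. Each replicate has its own calibration line, from reference interactions of the BCL2 family. Each pool was mated in three replicate cultures.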

Parent scFv Ab-91: VL joined to VH by a (GGGGS)3 linker. Changes lie in the heavy chain CDRs alone.
VL: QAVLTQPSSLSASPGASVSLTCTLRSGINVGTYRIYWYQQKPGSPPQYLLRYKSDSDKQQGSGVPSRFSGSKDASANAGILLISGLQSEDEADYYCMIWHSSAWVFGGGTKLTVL
VH: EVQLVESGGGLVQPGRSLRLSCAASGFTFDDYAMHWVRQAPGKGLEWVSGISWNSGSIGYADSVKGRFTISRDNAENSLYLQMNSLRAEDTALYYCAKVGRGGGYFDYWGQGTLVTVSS

Changes read parent residue, position, new residue, counted from the first residue of the VH shown. Affinities are written as log10 Kd with Kd in nM; a lower number is a better binder. Averages over replicates are reported, and they cover detected replicates only. "n.d." marks a missing value. The strain was present, yet no cells mated with the target were sequenced in that replicate, which points to weak or no binding. In this assay the parent's reference entry averaged 1.86; its copy inside this library read 0.88.

{"changes": "Y32F Y105M", "log10 Kd (nM) by replicate": "3.08 / 3.17 / 3.05", "mean, log10 nM": "3.10", "signal with controls": "3/9 (5.03)"}
{"changes": "T28R M34C G59I", "log10 Kd (nM) by replicate": "n.d. / n.d. / n.d.", "mean, log10 nM": "n.d.", "signal with controls": "1/9 (3.46)"}
{"changes": "G26C S57R D62N", "log10 Kd (nM) by replicate": "n.d. / 4.09 / n.d.", "mean, log10 nM": "4.09", "signal with controls": "1/9 (3.97)"}
{"changes": "F29K D30F S52Q", "log10 Kd (nM) by replicate": "n.d. / n.d. / n.d.", "mean, log10 nM": "n.d.", "signal with controls": "0/9"}
{"changes": "G50P S55K I58S", "log10 Kd (nM) by replicate": "n.d. / n.d. / n.d.", "mean, log10 nM": "n.d.", "signal with controls": "0/9"}
{"changes": "V64W G102Q G103M", "log10 Kd (nM) by replicate": "n.d. / n.d. / n.d.", "mean, log10 nM": "n.d.", "signal with controls": "1/9 (4.10)"}
{"changes": "D31I I58H V64I", "log10 Kd (nM) by replicate": "n.d. / n.d. / n.d.", "mean, log10 nM": "n.d.", "signal with controls": "1/9 (5.05)"}
{"changes": "S63C K65G V99M", "log10 Kd (nM) by replicate": "n.d. / 4.46 / n.d.", "mean, log10 nM": "4.46", "signal with controls": "1/9 (4.77)"}
{"changes": "F29G W53D", "log10 Kd (nM) by replicate": "n.d. / n.d. / n.d.", "mean, log10 nM": "n.d.", "signal with controls": "2/9 (4.25)"}
{"changes": "D31L I58A", "log10 Kd (nM) by replicate": "n.d. / n.d. / n.d.", "mean, log10 nM": "n.d.", "signal with controls": "2/9 (3.66)"}
{"changes": "Y32K V99D G103W", "log10 Kd (nM) by replicate": "n.d. / n.d. / n.d.", "mean, log10 nM": "n.d.", "signal with controls": "1/9 (3.42)"}
{"changes": "F27N D31W W53A", "log10 Kd (nM) by replicate": "n.d. / n.d. / n.d.", "mean, log10 nM": "n.d.", "signal with controls": "1/9 (3.88)"}
{"changes": "S57N Y105I", "log10 Kd (nM) by replicate": "n.d. / n.d. / n.d.", "mean, log10 nM": "n.d.", "signal with controls": "4/9 (4.06)"}
{"changes": "D30P A33Q V99Q", "log10 Kd (nM) by replicate": "4.83 / n.d. / 2.45", "mean, log10 nM": "3.64", "signal with controls": "1/9 (3.85)"}
{"changes": "Y32Q Y60F D107Y", "log10 Kd (nM) by replicate": "n.d. / n.d. / n.d.", "mean, log10 nM": "n.d.", "signal with controls": "0/9"}
{"changes": "D31S W53I V99D", "log10 Kd (nM) by replicate": "n.d. / n.d. / n.d.", "mean, log10 nM": "n.d.", "signal with controls": "0/9"}
{"changes": "F27I I51W K65E", "log10 Kd (nM) by replicate": "n.d. / n.d. / n.d.", "mean, log10 nM": "n.d.", "signal with controls": "2/9 (4.48)"}
{"changes": "G50S G59Q G102P", "log10 Kd (nM) by replicate": "n.d. / n.d. / n.d.", "mean, log10 nM": "n.d.", "signal with controls": "0/9"}
{"changes": "N54D", "log10 Kd (nM) by replicate": "n.d. / n.d. / n.d.", "mean, log10 nM": "n.d.", "signal with controls": "1/9 (2.47)"}
{"changes": "D31L G100Y G103R", "log10 Kd (nM) by replicate": "1.27 / 1.28 / 0.82", "mean, log10 nM": "1.12", "signal with controls": "2/9 (5.69)"}
{"changes": "M34I F106A", "log10 Kd (nM) by replicate": "4.36 / n.d. / n.d.", "mean, log10 nM": "4.36", "signal with controls": "1/9 (3.80)"}
{"changes": "H35M W53Y Y60D", "log10 Kd (nM) by replicate": "n.d. / n.d. / n.d.", "mean, log10 nM": "n.d.", "signal with controls": "1/9 (4.54)"}
{"changes": "D31W Y60A A61W", "log10 Kd (nM) by replicate": "5.38 / 4.85 / n.d.", "mean, log10 nM": "5.12", "signal with controls": "3/9 (4.48)"}

Excerpt, the final 2 entries:

{"changes": "H35M W53Y Y60D", "log10 Kd (nM) by replicate": "n.d. / n.d. / n.d.", "mean, log10 nM": "n.d.", "signal with controls": "1/9 (4.54)"}
{"changes": "D31W Y60A A61W", "log10 Kd (nM) by replicate": "5.38 / 4.85 / n.d.", "mean, log10 nM": "5.12", "signal with controls": "3/9 (4.48)"}

Empty control strains, which show no peptide, gave a signal in 21% of pairings with library AAYL51; the median was 4.54 and 95% of these signals were weaker than 3.26. No background was subtracted. The control count says in how many pairings with the empty strains this scFv gave a signal, with their mean in brackets.